Source: patent US9452154B2, “Methods for treating HCV” (Gilead Sciences, Inc., priority 2010, dated 2016)

System: Huh-7 cells carrying a HCV genotype 1a replicon
Experiment: Biological Example 3: cytotoxicity in combination studies (MacSynergy II)
Conditions: in combination with Compound 4

## NC(=O)c1ncn([C@@H]2O[C@H](CO)[C@@H](O)[C@H]2O)n1 [Ribavirin, 1-β-D-ribofuranosyl-1H-1,2,4-Triazole-3-carboxamide, reference compound]
  Antagonism Volume (cytotoxicity): −1 ± 2 nM^2%
  Interaction (cytotoxicity): Additivity (Additivity: ≦25 and >−25 nM^2%)
  Synergy Volume (cytotoxicity): 4 ± 3 nM^2%
